The list shows a part of the results, in another mix than the full data. The source made the active and inactive calls.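 The calls were made as follows: active = inhibition of granule release above a set limit; inactive = the rest.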
Assay: inhibitors of lytic granule exocytosis, flow cytometry, TALL-104 cells, validation set (AID 651664)
Settings: TALL-104 LAMP-1 externalization, at 15.2 µM, hits give high values, stimulated with thapsigargin and PMA

Structure (SMILES) | inhibition
O=C(NCC1(N2CCOCC2)CCCCC1)c1cc2ccccc2o1 | inactive: -1.6%
